Experiments:
[1] = molecular target: T1, human apelin receptor expressed in CHO-K1 cells (human, UniProt P35414 1-380); assay: cell-based or functional assay
T1 sequence (looked up): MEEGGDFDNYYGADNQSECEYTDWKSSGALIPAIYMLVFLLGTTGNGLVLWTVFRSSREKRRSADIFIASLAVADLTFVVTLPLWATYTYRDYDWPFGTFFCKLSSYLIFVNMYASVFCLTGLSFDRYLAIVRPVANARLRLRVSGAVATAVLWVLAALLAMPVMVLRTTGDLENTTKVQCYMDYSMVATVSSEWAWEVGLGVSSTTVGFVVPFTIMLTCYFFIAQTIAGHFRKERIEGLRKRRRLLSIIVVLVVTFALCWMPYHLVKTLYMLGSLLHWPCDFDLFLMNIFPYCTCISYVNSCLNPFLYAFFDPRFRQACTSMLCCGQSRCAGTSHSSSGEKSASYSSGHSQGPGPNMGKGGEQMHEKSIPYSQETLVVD

[2] = molecular target: T1, human apelin receptor expressed in …; assay: radioligand binding; competition binding in CHO-K1 cells expressing the human apelin receptor; details: one partner purified

- cAMP assay, pD2 (-log10 EC50) [1]: 10.1
- β-arrestin recruitment assay, pD2 (-log10 EC50) [1]: 9.08
- pKi [2]: 9.35
B1: ELA-14 (peptide)
chain: QRRCMPLHSRVPFP
modifications: limits not given; taken as the C-terminal 14 residues, ELA(19-32); N-terminal Gln may be pyroglutamate

From paper PMC5363837 (Circulation, 2017)
